The values below come from patent publication US20210040062A1, “AZOLE-SUBSTITUTED PYRIDINE COMPOUND” (TAISHO PHARMACEUTICAL CO., LTD., priority 2016, published 2021).

Amino acid sequences for entries named in this document (tags omitted). Residues count along the entry.
UniProt Q02928, 5-519 limits assumed: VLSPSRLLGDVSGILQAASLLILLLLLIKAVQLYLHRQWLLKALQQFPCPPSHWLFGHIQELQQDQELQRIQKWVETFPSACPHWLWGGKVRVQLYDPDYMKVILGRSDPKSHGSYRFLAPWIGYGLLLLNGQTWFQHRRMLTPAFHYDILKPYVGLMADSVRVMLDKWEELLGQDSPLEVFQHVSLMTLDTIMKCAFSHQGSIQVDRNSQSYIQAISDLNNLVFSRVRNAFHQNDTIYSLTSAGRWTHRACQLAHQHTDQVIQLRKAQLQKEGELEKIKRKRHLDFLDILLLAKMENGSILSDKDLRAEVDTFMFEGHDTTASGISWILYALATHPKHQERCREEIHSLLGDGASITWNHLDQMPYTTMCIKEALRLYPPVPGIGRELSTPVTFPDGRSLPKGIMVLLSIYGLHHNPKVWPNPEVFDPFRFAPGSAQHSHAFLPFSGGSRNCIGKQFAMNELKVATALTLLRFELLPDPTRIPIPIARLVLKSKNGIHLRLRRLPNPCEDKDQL
UniProt P78329, 5-520 limits assumed: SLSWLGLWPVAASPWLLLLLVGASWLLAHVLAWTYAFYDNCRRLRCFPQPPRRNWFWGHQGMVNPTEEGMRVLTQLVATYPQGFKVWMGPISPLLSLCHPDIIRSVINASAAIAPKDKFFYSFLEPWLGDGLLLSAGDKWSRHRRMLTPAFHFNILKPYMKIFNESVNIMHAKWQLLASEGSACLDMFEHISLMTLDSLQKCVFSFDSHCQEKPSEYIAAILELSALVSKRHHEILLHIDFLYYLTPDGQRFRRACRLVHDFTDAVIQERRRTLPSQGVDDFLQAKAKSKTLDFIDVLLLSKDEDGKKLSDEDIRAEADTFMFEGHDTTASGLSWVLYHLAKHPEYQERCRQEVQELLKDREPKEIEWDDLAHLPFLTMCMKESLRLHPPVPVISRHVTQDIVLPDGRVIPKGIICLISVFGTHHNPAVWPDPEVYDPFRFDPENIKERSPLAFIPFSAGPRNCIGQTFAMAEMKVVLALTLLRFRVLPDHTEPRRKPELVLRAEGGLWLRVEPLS

Assay [1] deals with human CYP4A11 (Homo sapiens, UniProt Q02928). The assay can be described thus: CYP4A11 inhibition test (Test Example 1). As to conditions: read-out: IC50 value Human CYP4A11; Escherichia coli membrane fraction expressing human CYP4A11, 60 μM luciferine derivative, room temperature 60 minutes, luminescence.
Assay [2] has as its target human CYP4F2 (Homo sapiens, UniProt P78329). The assay can be described thus: CYP4F2 inhibition test (Test Example 1). As to conditions: read-out: IC50 value Human CYP4F2; Escherichia coli membrane fraction expressing human CYP4F2, 2.5 μM luciferine derivative, room temperature 60 minutes, luminescence.

What is called IC50 is the concentration needed to halve the response being measured. For `CN(C)S(=O)(=O)N1CCC[C@H](COc2cnc(-c3ccn[nH]3)c(F)c2)C1`, the IC50 was 19 nM in assay [1] and 32 nM in assay [2].
